Experiments:
Mu-type opioid receptor [1] = molecular target: T1, Mu-type opioid receptor (Homo sapiens, UniProt P35372); assay: Agonist activity at mu opioid receptor (unknown origin) assessed as maximal cAMP level incubated for 40 mins by spectrophotometry relative to DAMGO; format: functional; details: filed as agonist
Mu-type opioid receptor [2] = molecular target: T1, Mu-type opioid receptor; assay: Agonist activity at mu opioid receptor (unknown origin) assessed as maximal beta arrestin-2 recruitment incubated for 3 days by PathHunter assay relative to DAMGO; format: functional; details: time 3.0 day

Sequences of proteins named here, by UniProt entry; tags and fusion partners are left off.
UniProt P35372, whole entry: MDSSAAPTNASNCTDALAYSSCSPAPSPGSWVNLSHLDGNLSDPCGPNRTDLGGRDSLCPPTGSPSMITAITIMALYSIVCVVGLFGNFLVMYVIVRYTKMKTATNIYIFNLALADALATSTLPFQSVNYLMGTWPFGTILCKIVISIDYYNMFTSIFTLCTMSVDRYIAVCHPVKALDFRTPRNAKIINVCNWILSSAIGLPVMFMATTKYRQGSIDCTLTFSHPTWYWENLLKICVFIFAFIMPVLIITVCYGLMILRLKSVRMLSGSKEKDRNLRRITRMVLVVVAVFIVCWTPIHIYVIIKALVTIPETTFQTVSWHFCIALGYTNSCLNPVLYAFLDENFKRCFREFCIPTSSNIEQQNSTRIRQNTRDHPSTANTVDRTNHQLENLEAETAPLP

SMILES	Emax (Mu-type opioid receptor [1]) [%]	Emax (Mu-type opioid receptor [2]) [%]
Fc1ccc([C@]2(CCNCc3scc4c3COC4)CCOC3(CCOC3)C2)cc1 (stereo partly specified)	83	3.2
Fc1ccc([C@]2(CCNCc3scc4c3CCC4)CCOC3(CCOC3)C2)cc1 (stereo partly specified)	97	1
Fc1ccc([C@]2(CCNCc3cccs3)CCOC3(CCOC3)C2)cc1 (stereo partly specified)	80.6	0.5
